Data published in BindingDB's records for US9988392.

Target: Mu-type opioid receptor (Homo sapiens, UniProt P35372)

## COc1ccc2c3c1O[C@H]1C4(OC)CC[C@@]5(C[C@]4(C)COCc4cc6ccccc6s4)[C@@H](C2)N(C)CC[C@]315
  EC50: 74.2 nM
